Here are results for five substances from patent US7927613B2, “Pharmaceutical co-crystal compositions” (University of South Florida, priority 2002, dated 2011).

For data set [1] the following is noted: vs. celecoxib sodium (FIG. 29).
Another data set is described as follows: Dissolution profile. Type of data set: physicochemical. From the text:
In another aspect of the present invention, the dissolution profile of the API is modulated whereby the aqueous dissolution rate or the dissolution rate in simulated gastric fluid or in simulated intestinal fluid, or in a solvent or plurality of solvents is increased. Dissolution rate is the rate at which API solids dissolve in a dissolution medium. For APIs whose absorption rates are faster than the dissolution rates (e.g., steroids), the rate-limiting step in the absorption process is often the dissolution rate. Because of a limited residence time at the absorption site, APIs that are not dissolved before they are removed from intestinal absorption site are considered useless. Therefore, the rate of dissolution has a major impact on the performance of APIs that are poorly soluble. Because of this factor, the dissolution rate of APIs in solid dosage forms is an important, routine, quality control parameter used in the API manufacturing process. Dissolution rate=K S(Cs−C) where K is dissolution rate constant, S is the surface area, Cs is the apparent solubility, and C is the concentration of API in the dissolution medium. For rapid API absorption, Cs−C is approximately equal to Cs The dissolution rate of APIs may be measured by conventional means known in the art. […] Conditions under which the dissolution rate is measured is the same as discussed above The increase in dissolution may be further specified by the time the composition remains supersaturated before reaching equilibrium solubility.

For data set [2] the following is noted: as compared to the API.
For data set [3] the following is noted: over previously known forms of carbamazepine; molar solubility, aqueous solutions.
Where [4] appears, read: vs. itraconazole free base (FIG. 28).

Consider “celecoxib:nicotinamide [Celecoxib: nicotinamide]”, for which the hygroscopicity profile entry in data set [1] was “improved hygroscopicity profile”. Also, the dissolution profile entry in “Dissolution profile” (vs. celecoxib free acid (FIG. 27)) is listed as “modulated dissolution profile”.

On to “itraconazole and succinic acid [Itraconazole: succinic acid]”, for which, in “Dissolution profile” (setting [4]), the dissolution profile entry is “modulated dissolution profile”.

With “itraconazole and tartaric acid [itraconazole:tartaric acid]”, the dissolution profile result in “Dissolution profile” (setting [4]) is listed as “modulated dissolution profile”.

Consider “carbamazepine:saccharin [carbamazepine and saccharin]”, for which, in data set [2], the form diversity result is on record as “reduced form diversity as compared to the API”.

As for “Carbamazepine:saccharin (Form II) [carbamazepine/saccharin]”, the solubility entry in data set [3] is “improved solubility over previously known forms of carbamazepine”.
